# Measured affinities in a library of Ab-95 light chain variants

From the AlphaSeq antibody data of Engelhart et al. 2022 (doi:10.1038/s41597-022-01779-4), copy in the FLAb collection.

Target: peptide PDVDLGDISGINAS, taken from heptad repeat 2 (HR2) of SARS-CoV-2 spike.

Parent: Ab-95, a human scFv built as VH, a 15-residue (Gly4Ser)3 linker, VL. Only the CDRs of the light chain vary.
VH: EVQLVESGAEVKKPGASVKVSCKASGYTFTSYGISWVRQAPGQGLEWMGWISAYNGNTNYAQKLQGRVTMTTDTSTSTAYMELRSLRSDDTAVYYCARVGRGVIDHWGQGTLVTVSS
VL: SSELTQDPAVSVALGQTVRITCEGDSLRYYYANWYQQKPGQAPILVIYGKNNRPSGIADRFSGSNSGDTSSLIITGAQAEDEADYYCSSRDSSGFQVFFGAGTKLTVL

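The parent was found by panning a naive human phage display library on the peptide. AAYL52 was designed without a model: most single CDR substitutions and a random sample of double and triple ones. Affinity was read by AlphaSeq, a pooled yeast mating assay with surface-displayed partners. After mating in shaken culture at 30 °C for 16 h, diploids were selected and their barcode pairs sequenced. Read counts were normalised to the haploid input and turned into Kd by a linear fit to BCL2-family pairs of known affinity, for each replicate. Mating was done three times.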

Changes read parent residue, position, new residue, counted from the first residue of the VL shown.
The read-out is the apparent dissociation constant on a log10 scale (nM): the lower, the stronger.
Replicates are averaged; those with no signal do not enter the mean.
An entry "ND" has no value in the source: the pair was not observed among the diploids in that replicate. This suggests poor binding but is not conclusive.
Three control strains display no target. For library AAYL52, 28% of the pairings with them gave a signal, with a median of 3.91 and one signal in twenty below 2.90, so weak values seen in few replicates may be background.

| replicates, log10 nM | mean, log10 nM | changes |
|---|---|---|
| ND / ND / ND | ND | S26L+R53H+S93D |
| 4.38 / 3.10 / ND | 3.74 | S26R+K50T+S55V |
| 3.44 / 3.95 / 3.65 | 3.68 | G24S+N51G+S92E |
| 3.17 / 4.04 / 3.81 | 3.68 | G24T+Y31D+K50E |
| 2.78 / 3.11 / 3.68 | 3.19 | Y30A+S89F+Q96W |
| ND / ND / ND | ND | S26C+S55L+R90W |
| 3.42 / 2.45 / 3.49 | 3.12 | G24S+S93A+Q96E |
| 2.97 / 3.17 / 4.13 | 3.42 | K50R+S93G+Q96H |
| 4.31 / ND / ND | 4.31 | Y30D+A32D+K50L |
| 3.52 / 2.66 / 4.58 | 3.59 | P54D+S89Q+S92C |
| 1.37 / 1.39 / 0.72 | 1.16 | Y31N+S55W+S92I |
| 4.29 / 3.64 / 4.13 | 4.02 | Y29M+N33S+V97W |
| 2.94 / 3.26 / 2.79 | 3.00 | L27M+S55L+S93D |
| 2.35 / 2.38 / 2.12 | 2.28 | E23L+S55T+S92A |
| 4.28 / 3.83 / ND | 4.06 | R53S+S93D+V97C |
| 4.10 / ND / ND | 4.10 | N33P+G49F+N52S |
| 2.46 / 2.56 / 2.53 | 2.52 | D25R+R28C+S89A |
| 4.25 / 3.52 / 3.44 | 3.73 | D25I+S55H+G94Q |
| 4.96 / ND / ND | 4.96 | Y30H+N33L |
| 4.55 / 2.90 / 2.95 | 3.46 | D25I+G94Q+Q96L |
| 3.16 / ND / 3.30 | 3.23 | N52E+R53P+F95N |
| 2.68 / 4.04 / ND | 3.36 | Y31M+N51A+G94H |
| 2.10 / 2.03 / 1.57 | 1.90 | G24C+Y31Q+K50E |
| 2.33 / 2.43 / 2.05 | 2.27 | R28K+K50N+R90P |
| 3.35 / 2.68 / 2.85 | 2.96 | N52F+D91A+S92D |
| 4.44 / ND / ND | 4.44 | L27Q+N52Y+S89L |
| 2.71 / 2.76 / 2.49 | 2.65 | F95V+Q96P+F98Y |
| 3.83 / ND / ND | 3.83 | S26A+N33R+P54F |
| ND / 5.32 / ND | 5.32 | R28E+S55F+G94N |
| 3.65 / 3.37 / 2.81 | 3.28 | D25G+Y30H+Y31V |
| 1.92 / 1.81 / 1.67 | 1.80 | D25V+P54A+S93T |
| 2.12 / 1.90 / 1.74 | 1.92 | Y30H+G49M+F98H |
| 4.52 / 3.34 / 3.79 | 3.88 | N52H+G94V+V97D |
| 3.54 / ND / ND | 3.54 | L27Y+Y29W+D91F |
| 1.21 / 1.16 / 0.63 | 1.00 | R28G+Y31G+A32Y |
| 3.89 / ND / ND | 3.89 | G24D+K50F+R53Q |
| ND / ND / ND | ND | G24T+R53L+G94P |
| 4.14 / ND / ND | 4.14 | E23Q+N51H+S93H |
| 5.23 / ND / 4.10 | 4.66 | L27F+D91H+G94R |
| 4.50 / 3.30 / ND | 3.90 | P54A+R90L+V97E |
| 3.03 / 3.41 / 3.04 | 3.16 | L27H+G94R+F95A |
| 5.20 / ND / ND | 5.20 | D25L+R90H+F95H |

Picked from the list: the 7 lowest averages where every replicate gave a value.

changes	replicates, log10 nM	mean, log10 nM
R28G+Y31G+A32Y	1.21 / 1.16 / 0.63	1.00
Y31N+S55W+S92I	1.37 / 1.39 / 0.72	1.16
D25V+P54A+S93T	1.92 / 1.81 / 1.67	1.80
G24C+Y31Q+K50E	2.10 / 2.03 / 1.57	1.90
Y30H+G49M+F98H	2.12 / 1.90 / 1.74	1.92
R28K+K50N+R90P	2.33 / 2.43 / 2.05	2.27
E23L+S55T+S92A	2.35 / 2.38 / 2.12	2.28